The text below walks through data of patent publication US20100260680A1, “NOVEL BONE MASS INCREASING AGENT” (ORIENTAL YEAST CO., LTD., priority 2007, published 2010).

Common to all, as to type: cell-based, mouse
For assay [1], the system named is GSK3β. In words: Western blotting of GSK3β phosphorylation in MC3T3-E1 cells. The conditions noted are these: 1 and 3 hours after the addition; 200 μM peptide D or 200 ng/ml BMP-2. The procedure:
(§1) MC3T3-E1 cells mixed with 10% FBS+αMEM (SIGMA) were seeded on a 6-well plate (7.5×10^4 cells/well). After 12 hours, the medium was removed therefrom and a medium containing 200 μM peptide D or 200 ng/ml BMP-2 was added thereto. The medium was removed at the respective time points shown in the relevant figures. PBS was added to the cells, and the cells were collected with a scraper (Falcon). A cell pellet was obtained via centrifugation at 1200 rpm for 5 min at 4° C. RIPA buffer (100 μL) was added to the collected pellet, for dissolution of the cellular membrane. Further, the resultant was centrifuged under conditions of 14500 rpm for 25 min at 4° C. The supernatant was collected as a cell extract. A portion of the cell extract was used for quantification of the protein concentration with the use of a BCA protein assay kit (PIERCE). For SDS-PAGE, a sample buffer in an amount that was ¼ that of the cell extract (Fermentas) was added thereto, followed by heating at 95° C. for 5 min. The prepared sample was applied in an amount of 7.5 or 10 μg to 10% polyacrylamide gel (BioRad), followed by electrophoresis at 170 V for 1 hour. After electrophoresis, the electrophoresed sample was transferred to a PVDF membrane (Millipore) at 80 mA for 40 min. […]

Assay [2] relates to Smad1/5/8. In words: Western blotting of Smad1/5/8 phosphorylation in MC3T3-E1 cells. The conditions noted are these: up to 3 hours after the addition; 200 μM peptide D or 200 ng/ml BMP-2. The procedure:
as §1

Assay [3] has as its system MC3T3-E1 cells. Kind of assay: RT-PCR verification of gene expression in MC3T3-E1 cells. The conditions noted are these: 200 μM peptide D (acetate) or 150 ng/ml BMP-2. The procedure:
Total RNA of each gene collected in Example 22 (2 μg) was subjected to RT-PCR. RT-PCR was performed using the ThermoScript RT-PCR System (Invitrogen) and random primers.
After cDNA synthesis, PCR was performed using primers specific to mouse alkaline phosphatase (mALP), mouse type I collagen al (mColI), and mouse osteocalcin (mOC). For standardization, PCR was performed using primers specific to mouse GAPDH. The used PCR primer sequences are shown below. PCR was performed using Ex Taq™ Hot Start Version (Takara Bio Inc., Shiga, Japan) under the following conditions. Alkaline phosphatase (mALP) was subjected to initial thermal denaturation at 95° C. for 3 minutes, followed by 28 cycles of 95° C. for 10 seconds, 60° C. for 15 seconds, and 68° C. for 1 minute and an elongation reaction at 68° C. for 10 minutes. Type I collagen α1 (mColI) was subjected to initial thermal denaturation at 93° C. for 3 minutes, followed by 20 cycles of 94° C. for 30 seconds, 58° C. for 30 seconds, and 72° C. for 15 seconds and an elongation reaction at 72° C. for 10 minutes. Osteocalcin (mOC) was subjected to initial thermal denaturation at 95° C. for 3 minutes, followed by 28 and 30 cycles of 94° C. for 30 seconds, 58° C. for 30 seconds, and 72° C. for 15 seconds and an elongation reaction at 72° C. for 10 minutes. […]

B1: BMP-2: BMP-2 (R&D), known bone morphogenetic factor used as positive control (protein, UniProt P12643 283-396, looked up)
Bone morphogenetic protein 2: QAKHKQRKRLKSSCKRHPLYVDFSDVGWNDWIVAPPGYHAFYCHGECPFPLADHLNSTNHAIVQTLVNSVNSKIPKACCVPTELSAISMLYLDENEKVVLKNYQDMVVEGCGCR
In the case of B1, the “phosphorylation of GSK3β” value in assay [1] is “observed to a similar extent”. Besides, in assay [2], the “phosphorylation of Smad1/5/8” value is “observed”. The “gene expression levels of ALP, Col1 and OC (RT-PCR)” value in assay [3] is on record as “significant increases in the gene expression levels”.
